Reported boiling point values for industrial, environmental and drug-like chemicals

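These are experimental values that the OPERA curators gathered from public databases to train and test their QSAR models. The files give a single number for a compound and property, which may rest on several reports. Method, purity and exact conditions of the single measurements are not given. The measured form (salt, isomer or mixture) is not always the one drawn. Some upstream entries may be estimates or bounds without being marked so.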

The boiling point refers to atmospheric pressure (760 mmHg), by the definition of the set.
"via" names the databases from which the curators took the value.

O=S(=O)(O)C(F)(F)C(F)(F)C(F)(F)F [Perfluoropropanesulfonic acid] is reported with bp 196 °C (via ChemicalBook, OCHEM).
CN(c1ccccc1)C(C)(C)C [Aniline, N-tert-butyl-N-methyl-] is reported with bp 278 °C (via OCHEM).
C=C[Si](C)(OC)OC [Vinylmethyldimethoxysilane] is reported with bp 103.9 °C (via eChemPortal).
CCOc1ccc(-c2ccc(C3CCC(CC)CC3)cc2)c(F)c1F (stereo not given) is reported with bp 414 °C (via eChemPortal).
Cc1nn(C)c(F)c1C(=O)F [5-Fluoro-1,3-dimethyl-1H-pyrazole-4-carbonyl fluoride] is reported with bp 210 °C (via eChemPortal).
CN(C)Cc1ccccc1Cl [1-(2-Chlorophenyl)-N,N-dimethylmethanamine] is reported with bp 217 °C (via eChemPortal).
CC=C1CC2CC1C1C3C=CC(C3)C21 (stereo not given) is reported with bp 260 °C (via eChemPortal).
C=C(C)C(=O)OCCOC [2-Methoxyethyl methacrylate] is reported with bp 175.3 °C (via eChemPortal).
IC[C@H]1CC[C@H](CI)CC1 [trans-1,4-Bis(iodomethyl)cyclohexane] is reported with bp 248 °C (via eChemPortal).
O=S(=O)(O)c1ccc(O)cc1 [4-Hydroxyphenylsulfonic acid] is reported with bp 166.7 °C (via eChemPortal).
NC(CO)(CO)CO [Tromethamine] is reported with bp 289.4 °C (via OFMPub, eChemPortal).
C=C(C)[C@H]1CC[C@H](C)C(=O)C1 [L-dihydrocarvone] is reported with bp 222 °C (via OCHEM).
CC(C)CCCCCCOP(=O)(O)O [Phosphoric acid, isononyl ester] is reported with bp 160 °C (via eChemPortal).
CC(C)[C@H]1OCC[C@]2(C[C@H]3CC[C@]2(C)C3(C)C)O1 is reported with bp 262 °C (via eChemPortal).
C=CCC(N)CC (stereo not given) [Hex-5-en-3-amine] is reported with bp 112 °C (via OCHEM).
CC(C)(O)C(=O)c1ccc(Cc2ccc(C(=O)C(C)(C)O)cc2)cc1 is reported with bp 332.7 °C (via eChemPortal).
CCCCOCCOCCOCOCCOCCOCCCC [Bis(butoxyethoxyethoxy)methane] is reported with bp 285.2 °C (via OFMPub, eChemPortal).
CC(Cl)C(Cl)(Cl)C(O)N=C(O)CCl (stereo not given) [2-Chloro-N-(2,2,3-trichloro-1-hydroxybutyl)ethanimidic acid] is reported with bp 142 °C (via OCHEM).
CCCCCCC1CCCC1=O (stereo not given) [2-Hexylcyclopentanone] is reported with bp 270.9 °C (via eChemPortal).
CC(C)c1ccc(Cl)cc1Br [2-Bromo-4-chloro-1-(1-methylethyl)benzene] is reported with bp 244.2 °C (via eChemPortal).
CC(C)(c1ccc(O)cc1)c1ccc(O)cc1 [Bisphenol A] is reported with bp 360 °C (via eChemPortal).
CCCCCC1=CCCC1=O [2-Pentyl-2-cyclopenten-1-one] is reported with bp 233.8 °C (via eChemPortal).
Oc1ccc2ccccc2c1N=Nc1ccccc1 [C.I. Solvent Yellow 14] is reported with bp 265 °C (via eChemPortal).
COC(=O)[C@@H]1CCC[C@H](C)C1 (relative stereo) is reported with bp 200 °C (via eChemPortal).
CCC(C)C1CCCCC1=O (stereo not given) [2-sec-Butylcyclohexan-1-one] is reported with bp 221 °C (via eChemPortal).
C=C(C)C(=O)OC1CC(C)CC(C)(C)C1 (stereo not given) [3,3,5-Trimethylcyclohexyl 2-methylprop-2-enoate] is reported with bp 240.6 °C (via eChemPortal).
CCC(CC)CC1(C(=O)O)CCCCC1 [1-(2-Ethyl-butyl)-cyclohexanecarboxylic acid] is reported with bp 306 °C (via eChemPortal).
CC1=CC(C)C(C2OCC3COC(C4CCC(C)=CC4C)N32)CC1 (stereo not given) is reported with bp 305 °C (via eChemPortal).
CCC(C)N[Si](C)(NC(C)CC)NC(C)CC (stereo not given) [Silanetriamine, 1-methyl-N,N',N''-tris(1-methylpropyl)-] is reported with bp 245 °C (via eChemPortal).
CCCCC(O)C(N)CC (stereo not given) [4-Octanol, 3-amino-] is reported with bp 217.9 °C (via eChemPortal).
FC(F)(F)COc1cccnc1Cl [2-Chloro-3-(2,2,2-trifluoroethoxy)pyridine] is reported with bp 223 °C (via eChemPortal).
CCC(CC)C1CC(C)(O)CCO1 (stereo not given) [2H-Pyran-4-ol, 2-(1-ethylpropyl)tetrahydro-4-methyl-] is reported with bp 244.2 °C (via eChemPortal).
C/C=C/C(=O)OC(CC)C(C)C (stereo partly drawn) [2-Butenoic acid, 1-ethyl-2-methylpropyl ester, (2E)-] is reported with bp 197 °C (via eChemPortal).
CCCCCCC(c1ccccc1)c1ccccc1 [1,1,-Diphenylheptane] is reported with bp 334 °C (via OCHEM).
O=c1sn(-c2cccc3ccccc23)c(=O)n1Cc1ccccc1 [Tideglusib] is reported with bp 511.3 °C (via PubChem).
CC1=C(C#N)C(C)(C)CCC1 [2,6,6-trimethyl-1-cyclohexene-1-carbonitrile] is reported with bp 229 °C (via eChemPortal).
c1ccc(N(CC2CO2)CC2CO2)cc1 (stereo not given) [2-Oxiranemethanamine, N-(2-oxiranylmethyl)-N-phenyl-] is reported with bp 204 °C (via OCHEM).
CC(C)(O)C(F)(F)C(F)C(F)(F)F (stereo not given) [3,3,4,5,5,5-Hexafluoro-2-methylpentan-2-ol] is reported with bp 127 °C (via ChemicalBook).
OCCC(F)(F)C(F)(F)C(F)(F)C(F)(F)C(F)(F)C(F)(F)C(F)(F)C(F)(F)C(F)(F)C(F)(F)F [10:2 Fluorotelomer alcohol] is reported with bp 228 °C (via ICF, OCHEM).

A selection of 4 entries from above:

For CC=C1CC2CC1C1C3C=CC(C3)C21 (stereo not given) the data give bp 260 °C (via eChemPortal).
For C=C(C)C(=O)OC1CC(C)CC(C)(C)C1 (stereo not given) [3,3,5-Trimethylcyclohexyl 2-methylprop-2-enoate] the data give bp 240.6 °C (via eChemPortal).
For CC1=CC(C)C(C2OCC3COC(C4CCC(C)=CC4C)N32)CC1 (stereo not given) the data give bp 305 °C (via eChemPortal).
For C/C=C/C(=O)OC(CC)C(C)C (stereo partly drawn) [2-Butenoic acid, 1-ethyl-2-methylpropyl ester, (2E)-] the data give bp 197 °C (via eChemPortal).

Values as listed in the OPERA 2.9 repository of K. Mansouri.